Data from patent US7312231B2, “Quinuclidine carbamate derivatives and their use as M3 antagonists” (priority 2000, dated 2007).

By UniProt entry, the sequences of proteins in these tests, tags left out.
UniProt P20309, whole entry: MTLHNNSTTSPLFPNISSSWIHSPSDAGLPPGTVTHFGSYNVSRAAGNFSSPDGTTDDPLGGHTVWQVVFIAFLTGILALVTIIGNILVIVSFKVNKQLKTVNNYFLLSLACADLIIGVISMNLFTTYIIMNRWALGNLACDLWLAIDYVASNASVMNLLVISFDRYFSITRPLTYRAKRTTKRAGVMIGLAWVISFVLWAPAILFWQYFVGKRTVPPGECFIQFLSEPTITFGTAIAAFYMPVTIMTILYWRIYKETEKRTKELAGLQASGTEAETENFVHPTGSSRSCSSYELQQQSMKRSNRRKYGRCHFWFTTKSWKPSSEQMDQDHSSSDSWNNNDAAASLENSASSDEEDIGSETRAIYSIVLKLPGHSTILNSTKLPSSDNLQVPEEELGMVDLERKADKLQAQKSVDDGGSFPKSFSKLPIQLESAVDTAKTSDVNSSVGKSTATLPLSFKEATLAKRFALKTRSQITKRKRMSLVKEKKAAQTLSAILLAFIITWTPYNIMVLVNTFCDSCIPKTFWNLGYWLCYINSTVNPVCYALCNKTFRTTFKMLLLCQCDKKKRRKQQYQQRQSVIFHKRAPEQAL

Target: human muscarinic M3 receptors (Homo sapiens, UniProt P20309)
Experiment: biochemical

Compound `CC(C)[N+]1(C)[C@@H]2CC[C@H]1C[C@@H](OC(=O)C(CO)c1ccccc1)C2` (stereo partly shown) [Ipratropium, reference compound] has an IC50 of 3 nM.
